Laboratory results reported in PMC12391994, “Synthesis of a fac-Tricarbonylrhenium(I) Complex with Pyrithione, Its Physicochemical Characterization, and Assessment of Biological Effects” (ACS Omega, 2025).

Tests used:
MCF-10A neoT cells [1] = test: Intracellular DQ-collagen IV degradation (flow cytometry); assay type: cell-based, human; settings: 5 μM
MCF-10A neoT cells [2] = test: Extracellular DQ-collagen IV degradation (spectrofluorimetry); assay type: cell-based, human; settings: 5 μM

`N#Cc1ccccc1.[C-]#[O+].[C-]#[O+].[C-]#[O+].[O-]n1ccccc1=S.[Re+]` [complex 4, fac-[Re(CO)3(pth)(benzonitrile)]] was tested, and the “reduction of intracellular DQ-collagen IV degradation” value (MCF-10A neoT cells [1]) was 83.3 ± 1.36% and the “reduction of extracellular DQ-collagen IV degradation” value (MCF-10A neoT cells [2]) was 41.4 ± 5.18%.
